# Data taken from PubChem BioAssay AID624204 (Sanford-Burnham Center for Chemical Genomics, 2012).
# Sequences of proteins named here, by UniProt entry; tags and fusion partners are left off. Residues count along the entry.
# UniProt Q9P0U3, 419-644 limits assumed: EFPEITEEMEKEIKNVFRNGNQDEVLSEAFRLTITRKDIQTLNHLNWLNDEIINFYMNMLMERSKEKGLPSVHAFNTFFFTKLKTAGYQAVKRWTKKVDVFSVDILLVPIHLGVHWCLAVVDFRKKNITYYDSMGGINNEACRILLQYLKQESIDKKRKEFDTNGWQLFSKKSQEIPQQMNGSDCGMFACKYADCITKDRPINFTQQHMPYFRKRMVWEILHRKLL
# This is a selection; strong and weak results do not stand in their true shares. Some salts or complexes appear as unconnected parts, following the source record. Calls of active or inactive are those of the source.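 How the source made its calls: active means inhibition at least 30% at 10 µM, raw YFP signal under a set limit, fluorescence ratio 0.5 to 1.5; inactive means the rest.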
# Biological target: Sentrin-specific protease 1 (Homo sapiens) (UniProt Q9P0U3)
# Experiment: human SENP1 catalytic domain inhibitors, primary screen, biochemical, FRET, uHTS (AID 624204);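 further: 0% = enzyme with DMSO and 100% = no enzyme wells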
# Conditions: recombinant SENP1 catalytic domain, CyPet-SUMO1-YPet FRET cleavage; at 10 µM; active compounds read high
row,SMILES,inhibition
1,CP(=O)(NC(=O)Nc1ccccc1)Oc1ccccc1 (configuration not stated),inactive: 0.809%
2,CCc1ccc(OP(C)(=O)N2CCN(c3ccc([N+](=O)[O-])cc3)CC2)cc1 (configuration not stated),inactive: -14.6%
3,Cc1cc(C)cc(OP(C)(=O)Nc2ccc(SC(F)(F)F)cc2)c1 (configuration not stated),inactive: 0.493%
4,Cc1cccc(C)c1OP(C)(=O)Nc1ccc(SC(F)(F)F)cc1 (configuration not stated),inactive: 2.8%
5,Cc1ccc(Nc2c([N+](=O)[O-])cc([N+](=O)[O-])cc2[N+](=O)[O-])cc1,inactive: 7.18%
6,CP(=O)(Nc1ccc(SC(F)(F)F)cc1)Oc1ccc(Cl)cc1 (configuration not stated),inactive: 0.815%
7,CP(=O)(Oc1ccccc1)OC(c1ccccc1)C(F)(F)F (configuration not stated),inactive: 1.58%
8,CP(=O)(Nc1ccccn1)Oc1ccc(Cl)cc1 (configuration not stated),inactive: -0.307%
9,CCOC(=O)c1ccc(NP(C)(=O)Oc2ccc(OC)cc2)cc1 (configuration not stated),inactive: 6.17%
10,O=[N+]([O-])c1cc([N+](=O)[O-])c(O)c([N+](=O)[O-])c1.c1ccc(Oc2ccncc2)cc1,inactive: 2.83%
11,CCOP(C)(=S)SCC(=O)NC(C)C(=O)O (configuration not stated),inactive: 0.228%
12,CP(=O)(Nc1ccccc1Br)Oc1ccccc1 (configuration not stated),inactive: 2.04%
13,COc1ccccc1OP(C)(=O)Nc1ccccc1 (configuration not stated),inactive: 0.00601%
14,CP(=S)(Nn1cnnc1)Oc1ccccc1 (configuration not stated),inactive: 2.33%
15,O=[N+]([O-])c1ccc2c(c1)C=Nc1ccccc1O2,inactive: 5.44%
16,CC(C)(C)c1ccc(OP(C)(=O)Nc2ccc(SC(F)(F)F)cc2)cc1 (configuration not stated),inactive: 1.99%
17,Cc1cccc(C)c1OP(C)(N)=O (configuration not stated),inactive: -0.17%
18,O=[N+]([O-])c1cc([N+](=O)[O-])c(Nc2cccnc2)c([N+](=O)[O-])c1,inactive: 3.23%
19,Cc1cc(C)cc(OP(C)(N)=O)c1 (configuration not stated),inactive: 0.188%
20,COc1ccccc1OP(C)(=O)Nc1cc(Cl)ccc1C (configuration not stated),inactive: 0.63%
21,COc1ccc(OP(C)(=O)Nc2cccc(F)c2)cc1 (configuration not stated),inactive: 1.28%
22,COc1ccccc1OP(C)(=O)Nc1ccc(C)cc1 (configuration not stated),inactive: 1.03%
23,Cc1ccc(NP(C)(=O)Oc2ccccc2)c(C)c1 (configuration not stated),inactive: 1.66%
24,CCOC(=O)c1ccc(NP(C)(=O)Oc2ccccc2)cc1 (configuration not stated),inactive: -0.669%
25,CCN(CC)CCCOC(=O)C(O)(c1ccccc1)c1ccccc1,inactive: -0.35%

row,SMILES,inhibition
1,COc1ccccc1-c1ccccn1.O=[N+]([O-])c1cc([N+](=O)[O-])c(O)c([N+](=O)[O-])c1,inactive: 1.84%
2,CCOC(=O)c1ccc(NP(C)(=O)Oc2cc(C)cc(C)c2)cc1 (configuration not stated),inactive: 1.16%
3,Cc1cc(C)cc(OP(C)(=O)Nc2ccc(C)cc2C)c1 (configuration not stated),inactive: 1.69%
4,COc1ccccc1OP(C)(=O)Nc1cccc(Br)c1 (configuration not stated),inactive: 2%
5,Cc1ccc(C)c(NP(C)(=O)Oc2ccccc2)c1 (configuration not stated),inactive: 0.0224%
6,Cc1cc(C)cc(OP(C)(=O)Nc2ccccn2)c1 (configuration not stated),inactive: 0.753%
7,CP(=O)(Nc1cccc(Br)c1)Oc1ccccc1 (configuration not stated),inactive: 1.22%
8,O=C(O)c1cccc(Nc2c([N+](=O)[O-])cc([N+](=O)[O-])cc2[N+](=O)[O-])c1,inactive: 7.57%
9,CC1=NCCc2c1[nH]c1ccccc21.O=[N+]([O-])c1cc([N+](=O)[O-])c(O)c([N+](=O)[O-])c1,inactive: -3.32%
10,CC1=C2N=C(C=C3N=C(C(C)=C4[N-][C@@](C)([C@@H]5N=C1[C@](C)(CCC(=O)NC[C@@H](C)OP(=O)([O-])O[C@H]1[C@@H](O)[C@@H](n6cnc7cc(C)c(C)cc76)O[C@@H]1CO)[C@H]5CC(N)=O)[C@@](C)(CC(N)=O)[C@@H]4CCC(N)=O)[C@@](C)(CC(N)=O)[C@@H]3CCC(N)=O)C(C)(C)[C@@H]2CCC(N)=O.[C-]#N.[Co+3],inactive: 20.5%
11,O=[N+]([O-])c1cc([N+](=O)[O-])c(Nc2nnnn2CCO)c([N+](=O)[O-])c1,inactive: 1.7%
12,CCOC(=O)C(CC)C1=NC(C)(C)Cc2ccccc21.O=[N+]([O-])c1cc([N+](=O)[O-])c(O)c([N+](=O)[O-])c1 (configuration not stated),inactive: 0.494%
13,COc1ccc(-c2ccccn2)cc1.O=[N+]([O-])c1cc([N+](=O)[O-])c(O)c([N+](=O)[O-])c1,inactive: 0.4%
14,CCCOc1ccc(NP(C)(=O)Oc2ccc(Cl)cc2)cc1 (configuration not stated),inactive: -1.13%
15,CP(=O)(Nc1ccc(SC(F)(F)F)cc1)Oc1ccccc1 (configuration not stated),inactive: 1.43%
16,CN1CCCCC1COC(=O)C1(O)c2ccccc2CCc2ccccc21 (configuration not stated),inactive: 1.19%
17,CN(Cc1cccnc1)C(=O)COc1ccc(Cl)c(Cl)c1.O=[N+]([O-])c1cc([N+](=O)[O-])c(O)c([N+](=O)[O-])c1,inactive: 0.972%
18,O=[N+]([O-])c1cc([N+](=O)[O-])c(-n2nnc3ccccc32)c([N+](=O)[O-])c1,inactive: -3.15%
19,Cc1nc2ccc3ccccc3c2s1.O=[N+]([O-])c1cc([N+](=O)[O-])c(O)c([N+](=O)[O-])c1,inactive: -0.975%
20,O=[N+]([O-])c1cc([N+](=O)[O-])c(-c2cnn(-c3ccccc3)c2)c([N+](=O)[O-])c1,inactive: 2.34%
21,CCOP(C)(=S)SCC(=O)NC(C)(CC)C(=O)O (configuration not stated),inactive: 2.73%
22,CP(=O)(Nc1ccc(SC(F)(F)F)cc1)Oc1ccc(F)cc1 (configuration not stated),inactive: 0.625%
23,Cc1ccccc1NP(C)(=O)Nc1ccccc1C,inactive: 2.79%
24,O=[N+]([O-])c1cc([N+](=O)[O-])c(C(F)(F)F)c([N+](=O)[O-])c1O,inactive: 2.23%
25,CP(=O)(Nc1ccc2c(c1)OCCO2)Oc1ccccc1 (configuration not stated),inactive: 1.66%

row,SMILES,inhibition
1,CN(C)CCOC(=O)C(O)(c1ccccc1)C1CCCCC1 (configuration not stated),inactive: 1.74%
2,COc1ccc(NP(C)(=O)Oc2ccccc2OC)cc1 (configuration not stated),inactive: 0.884%
3,COc1ccc(OP(C)(=O)Nc2cccc(Br)c2)cc1 (configuration not stated),inactive: 0.437%
4,Cc1c(C(c2ccc3c(c2)OCO3)c2c(C)n(C)n(-c3ccccc3)c2=O)c(=O)n(-c2ccccc2)n1C.O=[N+]([O-])c1cc([N+](=O)[O-])c(O)c([N+](=O)[O-])c1,inactive: 3.69%
5,O=[N+]([O-])c1ccc(OP2(=O)COCCO2)cc1 (configuration not stated),inactive: 1.1%
6,O=[N+]([O-])c1cc([N+](=O)[O-])c(NCC2CCS(=O)(=O)C2)c([N+](=O)[O-])c1 (configuration not stated),inactive: 3.34%
7,Cc1cc(-c2cccc3ccccc23)c(C)cn1.O=[N+]([O-])c1cc([N+](=O)[O-])c(O)c([N+](=O)[O-])c1,inactive: 0.981%
8,CCOC(=O)c1ccc(NP(C)(=O)Oc2ccc(F)cc2)cc1 (configuration not stated),inactive: 1.4%
9,COc1ccc(OP(C)(=O)Nc2ccc(SC(F)(F)F)cc2)cc1 (configuration not stated),inactive: 1.11%
10,CCN(CC)CCCNc1ccccc1[N+](=O)[O-].O=[N+]([O-])c1cc([N+](=O)[O-])c(O)c([N+](=O)[O-])c1,inactive: 0.413%
11,CP(=O)(Nc1ccccc1)Oc1ccc(F)cc1 (configuration not stated),inactive: 1.68%
12,CCCCCOc1ccc(NP(C)(=O)Oc2ccc(Cl)cc2Cl)cc1 (configuration not stated),inactive: 0.536%
13,O=[N+]([O-])c1cc([N+](=O)[O-])c(OC2CCCCC2O)c([N+](=O)[O-])c1 (configuration not stated),inactive: -2.31%
14,Cc1c([N+](=O)[O-])cc([N+](=O)[O-])c(Br)c1[N+](=O)[O-],inactive: 2.98%
15,CCN(CC)CCCOC(=O)C(O)(c1ccccc1)C1CCCCC1 (configuration not stated),inactive: 0.175%
16,CP(=O)(Nc1ccccc1F)Oc1ccccc1 (configuration not stated),inactive: 0.911%
17,CC(C)c1ccc(OP(C)(=O)Nc2ccc(SC(F)(F)F)cc2)cc1 (configuration not stated),inactive: 0.581%
18,O=[N+]([O-])c1cc([N+](=O)[O-])c(Nc2ccc(Cl)cc2)c([N+](=O)[O-])c1,inactive: 4.2%
19,COc1ccc2c(c1O)-c1c(O)c(OC)cc3c1[C@H](C2)[N+](C)(C)CC3.O=[N+]([O-])c1cc([N+](=O)[O-])c([O-])c([N+](=O)[O-])c1[O-],inactive: 3.05%
20,O=C(OC1CN2CCC1CC2)c1ccc([N+](=O)[O-])cc1 (configuration not stated),inactive: -1.89%
21,O=C(OCCN1CCN(CCOCc2ccccc2)CC1)C(O)(c1ccccc1)c1ccccc1,inactive: 0.686%
22,COc1ccc(OP(C)(=O)Nc2ccccn2)cc1 (configuration not stated),inactive: 1.86%
23,CN(C)CCOC(=O)C(O)(c1ccccc1)C1CCCC1 (configuration not stated),inactive: 0.773%
24,COc1ccccc1OP(C)(=O)Nc1ccc(Br)cc1 (configuration not stated),inactive: 1.19%
25,CP(=O)(Nc1ccccn1)Oc1ccccc1 (configuration not stated),inactive: 1.96%

row,SMILES,inhibition
1,COc1ccccc1OP(C)(=O)Nc1ccc(C)cc1C (configuration not stated),inactive: -0.198%
2,CCc1ccc(OP(C)(=O)O)cc1,inactive: -0.214%
3,Cc1c(NP(C)(=O)Oc2ccc(C(C)C)cc2)c(=O)n(-c2ccccc2)n1C (configuration not stated),inactive: 0.875%
4,O=[N+]([O-])c1cc([N+](=O)[O-])c(Nc2ccccn2)c([N+](=O)[O-])c1,inactive: 1.51%
5,COc1ccccc1OP(C)(=O)Nc1ccc(C)c(C)c1 (configuration not stated),inactive: -1.04%
6,COc1ccc(OP(C)(=O)Nc2ccccc2Br)cc1 (configuration not stated),inactive: 0.669%
7,O=C1C(O)=C([N+](=O)[O-])C(=O)C(O)=C1[N+](=O)[O-],inactive: 10.3%
8,Cc1cc(C)cc(OP(C)(=O)Nc2cccc(C(F)(F)F)c2)c1 (configuration not stated),inactive: 2.37%
9,CCCCCCCCCCCCCCCC1C[N+](C)(C)CCOP(C)(=O)O1 (configuration not stated),inactive: 1.7%
10,CP(=O)(Nc1ccc(Cl)cc1Cl)Oc1ccccc1 (configuration not stated),inactive: 2.13%
11,CP(=O)(OCCOc1ccccc1)OCCOc1ccccc1,inactive: 0.779%
12,CCOC(=O)c1ccc(NP(C)(=O)Oc2ccc(Cl)cc2)cc1 (configuration not stated),inactive: 1.97%
13,CP(=O)(OC12CC3CC(CC(C3)C1)C2)OC12CC3CC(CC(C3)C1)C2,inactive: 1.62%
14,COc1ccccc1OP(C)(=O)Nc1c(C)n(C)n(-c2ccccc2)c1=O (configuration not stated),inactive: 1.96%
15,O=C(OCCCN1CCCC1)C(O)(c1ccccc1)C1CCCCC1 (configuration not stated),inactive: 0.826%
16,CP(=O)(Oc1ccccc1)N1CCOC1=O (configuration not stated),inactive: 1.22%
17,CCc1ccc(OP(C)(=O)Nc2cccnc2)cc1 (configuration not stated),inactive: 0.0323%
18,CCN(CC)CC(O)COC(=O)C(O)(c1ccccc1)C1CCCCC1 (configuration not stated),inactive: 1.71%
19,COc1ccc(OP(C)(=O)Nc2ccc(Br)cc2)cc1 (configuration not stated),inactive: -0.214%
20,CN(C)C(=O)c1c([N+](=O)[O-])cc([N+](=O)[O-])cc1[N+](=O)[O-],inactive: 1.81%
21,COc1ccccc1OP(C)(=O)Nc1ccccc1Br (configuration not stated),inactive: 0.845%
22,CC(C)(C)c1ccc(OP(C)(=O)O)cc1,inactive: 1.79%
